IC50 data for 1 compound are collected here from ChEMBL document CHEMBL1145907, “Requirements for specific binding of low affinity inhibitor fragments to the SH2 domain of (pp60)Src are identical to those for high affinity binding of full length inhibitors” (J Med Chem, 2003).

Chains of the proteins cited; added tags and fusions are not shown. Lines headed by an entry give the natural chain unless they say otherwise; changes in a name come on top.
UniProt P12931: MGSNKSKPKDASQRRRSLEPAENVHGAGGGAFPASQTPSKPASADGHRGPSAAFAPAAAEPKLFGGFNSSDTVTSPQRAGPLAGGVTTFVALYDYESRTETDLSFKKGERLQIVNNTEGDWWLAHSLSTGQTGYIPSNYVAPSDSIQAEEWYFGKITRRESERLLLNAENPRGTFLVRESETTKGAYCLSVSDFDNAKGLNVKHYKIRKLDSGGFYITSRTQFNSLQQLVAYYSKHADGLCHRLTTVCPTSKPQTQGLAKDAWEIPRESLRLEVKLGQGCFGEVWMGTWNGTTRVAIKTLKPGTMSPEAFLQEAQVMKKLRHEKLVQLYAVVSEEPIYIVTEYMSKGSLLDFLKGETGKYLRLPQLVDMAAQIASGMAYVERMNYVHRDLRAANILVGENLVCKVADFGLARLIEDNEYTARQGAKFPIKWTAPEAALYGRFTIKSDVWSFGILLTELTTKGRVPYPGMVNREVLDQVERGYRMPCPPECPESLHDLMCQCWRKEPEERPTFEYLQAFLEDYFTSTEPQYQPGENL

For the test, the target named is Proto-oncogene tyrosine-protein kinase Src (Homo sapiens, UniProt P12931). In words: Inhibitory activity against SH2 domain of human p60 c-Src tyrosine kinase using surface plasmon resonance (SPR) assay. (SPR reads the build-up and loss of mass on a sensor chip optically.)

SMILES strings stand for the structures. pIC50: −log10 of the molar value.

Turning to `O=C(O)C(c1ccccc1)S(=O)(=O)O` (stereo unspecified), the negative-log IC50 (pIC50) (commonly −log10 of the IC50, conventionally taken in molar units) was 2.49.
